From paper PMC4245888 (Frontiers in Pharmacology, 2014)

Test: Pharmacokinetics of ATO in plasma, single-dose three-period crossover study, ATO alone vs ATO–EZE combination
Assay type: in vivo, human
Settings: ATO 80 mg coadministered with EZE 10 mg; bioequivalence-based hypothesis

SMILES: CC(C)c1c(C(=O)Nc2ccccc2)c(-c2ccccc2)c(-c2ccc(F)cc2)n1CC[C@@H](O)C[C@@H](O)CC(=O)O [ATO, Atorvastatin]
- pharmacokinetic drug–drug interaction (on ATO): no relevant pharmacokinetic drug–drug interaction
